Laboratory results reported in patent publication US20250145608A1, “KRAS DEGRADING COMPOUNDS COMPRISING ANNULATED 2-AMINO-3-CYANO THIOPHENES” (Boehringer Ingelheim Int'l GmbH Corp., priority 2021, published 2025).

Sequences of proteins named here, by UniProt entry; tags and fusion partners are left off. Residues count along the entry.
UniProt P01116, 1-188 isoform 2 G12D: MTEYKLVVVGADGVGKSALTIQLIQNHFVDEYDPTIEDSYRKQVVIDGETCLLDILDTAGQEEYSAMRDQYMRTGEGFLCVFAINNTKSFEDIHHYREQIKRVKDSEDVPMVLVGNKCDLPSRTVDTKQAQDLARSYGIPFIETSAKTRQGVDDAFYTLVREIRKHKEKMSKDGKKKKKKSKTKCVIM

Biological target: KRAS(G12D) (Homo sapiens, UniProt P01116, G12D)
Assay: HiBit degradation assay in GP5d-HiBit-KRAS(G12D) cells (18 h; DC50, Dmax)

Cc1ncsc1-c1ccc([C@@H](NC(=O)[C@@H]2C[C@@H](O)CN2C(=O)C(C(C)C)n2cc(OCCCCN3CCCN(c4nccc(-c5noc([C@@]6(C)CCCc7sc(N)c(C#N)c76)n5)n4)[C@@H](C)C3)nn2)C(=O)O)cc1 (some centres unmarked)
Dmax 18 h: 83 % Ctrl
DC50 (read-out: DC50 18 h): 739 nM
